The species named for the experiment is Mus musculus. Put plainly: Blockade of morphine-induced elevation of tail-flick latency. On the technique in general: Hot-plate and tail-flick tests time the reaction to a heat stimulus.

Bounds are passed on as bounds.

Usually ED50 stands for the dose that gives a 50% effect, or the effect in half of the subjects. A high value points to weaker potency. As for `CCCC1(O)CCC(c2ccc(Cl)cc2)(N(C)C)CC1` (stereo not drawn), the ED50 was > 100 mg/kg.
For `C=CCC1(O)CCC(c2ccc(Cl)cc2)(N(C)C)CC1` (stereo not drawn) the value was > 100 mg/kg.
For `C=CCC1(O)CCC(c2ccc(Br)cc2)(N(C)C)CC1` (stereo not drawn) the value was > 50 mg/kg.
With `CN(C)C1(c2ccc(Cl)cc2)CCC(O)(CCC2=CCCCC2)CC1` (stereo not drawn) the figure was > 100 mg/kg; with `CN(C)C1(c2ccc(Cl)cc2)CCC(C)(O)CC1` (stereo not drawn), > 100 mg/kg.
Take `Cc1ccc(C2(N(C)C)CCC(C)(O)CC2)cc1` (stereo not drawn): the ED50 is > 100 mg/kg.
For `CN(C)C1(c2ccc(Cl)cc2)CCC(O)(CCC2CCCC2)CC1` (stereo not drawn) the value was > 100 mg/kg; for `CN(C)C1(c2ccc(Cl)cc2)CCC(O)(CCC2CC=CCC2)CC1` (stereo not drawn), > 100 mg/kg.
For the molecule `C#CC1(O)CCC(c2ccc(C)cc2)(N(C)C)CC1` (stereo not drawn), the ED50 is > 100 mg/kg.
For `CN(C)C1(c2ccccc2)CCC(O)CC1` (stereo not drawn) the value was > 100 mg/kg; for `CN(C)C1(c2ccc(Cl)cc2)CCC(O)(Cc2ccccc2)CC1` (stereo not drawn), > 100 mg/kg.
For `C=CCCCC1(O)CCC(c2ccc(Cl)cc2)(N(C)C)CC1` (stereo not drawn) the value was > 100 mg/kg; for `C=CCC1(O)CCC(c2ccc(C)cc2)(N(C)C)CC1` (stereo not drawn), > 50 mg/kg; for `C=C1CCC(CC2(O)CCC(c3ccc(Cl)cc3)(N(C)C)CC2)CC1` (stereo not drawn), > 100 mg/kg.
With `CN(C)C1(c2ccc(Cl)cc2)CCC(O)(CCCc2ccccc2)CC1` (stereo not drawn) the figure was > 100 mg/kg.
In the case of `CN(C)C1(c2ccc(Cl)cc2)CCC(O)CC1` (stereo not drawn), the ED50 was > 6.3 mg/kg.
For `C=CCCC1(O)CCC(c2ccc(Cl)cc2)(N(C)C)CC1` (stereo not drawn) the value was > 100 mg/kg; for `CN(C)C1(c2ccc(Br)cc2)CCC(C)(O)CC1` (stereo not drawn), > 50 mg/kg.

The record behind these values is ChEMBL document CHEMBL1121903, “4-amino-4-arylcyclohexanones and their derivatives: a novel class of analgesics. 2. Modification of the carbonyl function” (1981).
